{
  "source": "patent US20250230147A1",
  "about": "“LACTAMS AS CBL-B INHIBITORS” (Genentech, Inc., priority 2021, published 2025)",
  "data": [
    {"molecular_target": "c-Cbl (Homo sapiens (Human), UniProt P22681)", "test": "C-Cbl LCK Ub TR-FRET assay (c-cbl Lck HTRF)", "assay_type": "biochemical", "conditions": "C-cbl Lck HTRF IC50 relative to Cbl-b Lck HTRF IC50", "protocol": "(§1) 6 μL of detection mixture was added to all wells and briefly centrifuged before incubating for 20 min at room temperature. […] IC50 was generated using no LCK as the low control and DMSO as the high control.", "values": [
      {"smiles": "CC(=O)NCCCCNc1cc(C2(Cc3nncn3C)CCC2)cc(N2Cc3c(cc(CNC4(C)CCC4)cc3C(F)(F)F)C2=O)n1.O=CO", "note": "[Compound 314, N-(4-((4-(1-((4-methyl-4H-1,2,4-triazol-3-yl)methyl)cyclobutyl)-6-(6-(((1-methylcyclobutyl)amino)methyl)-1-oxo-4-(trifluoromethyl)isoindolin-2-yl)pyridin-2-yl)amino)butyl)acetamide formate]", "(fold-selectivity)": "(1.1x)"},
      {"smiles": "CCNc1cc(C2(Cc3nncn3C)CC(F)(F)C2)cc(N2Cc3c(cc(CN4CCN(C)C[C@@H]4C(C)C)cc3C(F)(F)F)C2=O)n1.O=CO", "note": "[Compound 236, (S)-2-(4-(3,3-difluoro-1-((4-methyl-4H-1,2,4-triazol-3-yl)methyl)-cyclobutyl)-6-(ethylamino)pyridin-2-yl)-6-((2-isopropyl-4-methylpiperazin-1-yl)methyl)-4-(trifluoromethyl)isoindolin-1-one formate]", "(fold-selectivity)": "(1.1x)"},
      {"smiles": "Cn1cnnc1CC1(c2cccc(N3Cc4c(cc(CNC5(C)CCC5(C)C)cc4C(F)(F)F)C3=O)c2)CC(F)(F)C1.O=CO", "note": "(stereo not drawn) [Compound 355, 2-(3-(3,3-difluoro-1-((4-methyl-4H-1,2,4-triazol-3-yl)methyl)cyclobutyl)phenyl)-4-(trifluoromethyl)-6-(((1,2,2-trimethylcyclobutyl)amino)methyl) isoindin-1-one formate]", "(fold-selectivity)": "(0.66x)"},
      {"smiles": "CC(C)Cc1cc(C2(Cc3nncn3C)CCC2)cc(N2Cc3c(cc(CNC4(C)CCC4)cc3C(F)(F)F)C2=O)n1.O=CO", "note": "[Compound 342, 2-(6-isobutyl-4-(1-((4-methyl-4H-1,2,4-triazol-3-yl)methyl)cyclobutyl)pyridin-2-yl)-6-(((1-methylcyclobutyl)amino)methyl)-4-(trifluoromethyl)isoindolin-1-one formate]", "(fold-selectivity)": "(0.73x)"},
      {"smiles": "Cn1cnnc1CC1(c2cccc(N3Cc4c(cc(C5CCN5)cc4C(F)(F)F)C3=O)c2)COC1.O=CO", "note": "(stereo not drawn) [Compound 13, 6-(azetidin-2-yl)-2-(3-(3-((4-methyl-4H-1,2,4-triazol-3-yl)methyl)oxetan-3-yl)phenyl)-4-(trifluoromethyl)isoindolin-1-one formate]", "(fold-selectivity)": "1.7x"},
      {"smiles": "CCCNCc1cc2c(c(C(F)(F)F)c1)CN(c1cccc(C3([C@@H](F)c4nncn4C)COC3)c1)C2=O.O=CO", "note": "[Compound 228, (R)-2-(3-(3-(fluoro(4-methyl-4H-1,2,4-triazol-3-yl)methyl)oxetan-3-yl)phenyl)-6-((propylamino)methyl)-4-(trifluoromethyl)isoindolin-1-one formate]", "(fold-selectivity)": "(0.78x)"},
      {"smiles": "CN1CC(Cc2cc3c(c(C(F)(F)F)c2)CN(c2cccc(C4(Cc5nncn5C)CC(F)(F)C4)c2)C3=O)C1.O=CO", "note": "[Compound 442, 2-(3-(3,3-difluoro-1-((4-methyl-4H-1,2,4-triazol-3-yl)methyl)cyclobutyl)phenyl)-6-((1-methylazetidin-3-yl)methyl)-4-(trifluoromethyl)isoindolin-1-one formate]", "(fold-selectivity)": "(0.67x)"}
    ]},
    {"molecular_target": "c-Cbl (Homo sapiens (Human), UniProt P22681)", "test": "C-Cbl LCK Ub TR-FRET assay (c-cbl Lck HTRF)", "assay_type": "biochemical", "conditions": "C-cbl Lck HTRF IC50 relative to Cbl-b Lck HTRF IC50; formate", "protocol": "as §1", "values": [
      {"smiles": "Cn1cnnc1CC1(c2cccc(N3Cc4c(Cl)cc(CNC5(C)CCC5)cc4C3=O)c2)CC(F)(F)C1.O=CO", "note": "[Compound 252, 4-chloro-2-(3-(3,3-difluoro-1-((4-methyl-4H-1,2,4-triazol-3-yl)-methyl)cyclobutyl)phenyl)-6-(((1-methylcyclobutyl)amino)methyl)isoindolin-1-one formate]", "(fold-selectivity)": "(0.85x)"},
      {"smiles": "Cn1cnnc1CC1(c2cccc(N3Cc4c(Cl)cc(CNC5(C)CCC5)cc4C3=O)c2)CC(F)(F)C1.O=CO", "note": "[Compound 282, 4-chloro-2-(3-(3,3-difluoro-1-((4-methyl-4H-1,2,4-triazol-3-yl)methyl)cyclobutyl)phenyl)-6-(((1-methylcyclobutyl)amino)methyl) isoindolin-1-one formate]", "(fold-selectivity)": "(0.86x)"}
    ]}
  ]
}
